Apparent affinities of Ab-14 variants for a coronavirus HR2 peptide

Reference: Li et al. 2023, doi:10.1038/s41467-023-39022-2. File: FLAb, binding data.

Target peptide (SARS-CoV-2 spike, HR2 region): PDVDLGDISGINAS

The variants keep the heavy chain, the linker and the frameworks of Ab-14 (scFv order VH, a (GGGGS)3 linker, VL).
VH: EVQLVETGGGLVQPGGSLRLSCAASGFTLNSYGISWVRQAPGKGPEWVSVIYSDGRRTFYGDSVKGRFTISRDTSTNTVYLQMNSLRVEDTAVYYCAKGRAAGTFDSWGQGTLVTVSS
VL: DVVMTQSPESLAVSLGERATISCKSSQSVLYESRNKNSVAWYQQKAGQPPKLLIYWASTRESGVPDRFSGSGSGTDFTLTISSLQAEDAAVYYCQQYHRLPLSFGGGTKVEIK

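Phage display of a naive human antibody library on the peptide gave the parent. The variants were designed computationally from a first round of random CDR variants and then made and measured. Group labels follow the data file (En: ensemble of fine-tuned language models; GP: Gaussian process model; HC: hill climbing; Gen: genetic algorithm; Gibbs: Gibbs sampling; a sequence that several methods proposed may carry one label only). The assay is AlphaSeq: two haploid yeast populations carry antibody and antigen on their surface. After mating in shaken culture at 30 °C for 16 h, diploids were selected and their barcode pairs sequenced. Scores were corrected for input abundance and mapped to Kd with protein pairs of known affinity run in the same pool. Mating was done six times.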

Each variant is given by its three light chain CDRs, as the data file delimits them; those of the parent are KSSQSVLYESRNKNSVA, WASTRES, QQYHRLPLS.
Variants here have more than six changes.
Scale: log10 of Kd in nM, estimated from mating counts; low values are strong binders.
An entry "ND" has no value in the source: the pair was not observed among the diploids in that replicate. This suggests poor binding but is not conclusive.
The authors' rule: three or more of the six replicates give a measured affinity, fewer mean a poor binder.
As a blank, each scFv also met three strains without target: over all light chain designs, 4% of these pairings were detected, typically at 2.64 and seldom below 1.59. Also given: how often the same scFv was detected with the empty control strains, with their mean in brackets.
Values of this round are not directly comparable with the first-round values of the same sequences.

| CDR-L1 | CDR-L2 | CDR-L3 | group | log10 Kd (nM) by replicate | empty controls |
|---|---|---|---|---|---|
| KLSQVTHSEKRNKNSIA | EMVTREV | QQYDRLPLS | En_HC | 0.72 / 0.61 / -0.11 / 0.27 / 0.81 / 0.36 | 1 of 18 (1.98) |
| KLSQAVNMTGKNKNSVA | ELSFRES | QQYERLPLS | En_HC | 1.43 / 1.85 / 1.90 / 1.53 / 1.57 / 1.95 | 0 of 18 |
| RLNCSQYDKYEHGKAIA | ADQTRMS | QQYFRLPLS | En_Gibbs | 0.43 / 0.28 / 0.31 / 0.19 / 0.41 / 0.47 | 1 of 18 (3.50) |
| MIQQLYNMGTFAINSVA | QASIRNS | QQYDRLPLM | En_Gen | ND / 1.60 / 1.03 / 2.26 / 2.67 / 2.60 | 0 of 18 |
| KLEQSVMLESRNKNAVA | SASQREL | QQYHRLPLS | GP_Gibbs | 0.18 / -0.17 / -0.18 / -0.08 / -0.23 / -0.13 | 0 of 18 |
| KISQSILFMSGTKNAIA | QMEMREE | QQYHRLPLS | En_HC | 0.75 / 0.15 / 0.68 / 0.11 / 0.24 / 0.33 | 0 of 18 |
| MLGDVAQGLTRKEDSVA | DNSTRES | QQYDRLPLS | En_Gen | 2.64 / 2.62 / 1.85 / 2.36 / 1.74 / 2.47 | 1 of 18 (2.43) |
| MISQLYNMGTFAINSVA | QASVRYE | QQYDRLPLI | En_Gen | 0.15 / 0.43 / -0.09 / 0.17 / -0.16 / 0.44 | 0 of 18 |
| KMNMAFQQDLMDEYSVA | DHMTAVT | QQYGRLPLS | En_Gibbs | ND / ND / ND / ND / ND / ND | 0 of 18 |
| KISQSILFMSGNNNAIA | QMEMREE | QQYHRLPLS | En_HC | 0.62 / 0.46 / 0.63 / 0.82 / 0.37 / 0.54 | 1 of 18 (1.45) |
| KMQTLTYTANIGENSVA | DANVHVD | QQYFRLPLS | En_Gibbs | 0.54 / 0.65 / 0.70 / 0.56 / 0.60 / 0.80 | 2 of 18 (2.91) |
| HIQSESEHPYKDKNSMA | DAECKAA | QQYFRLPLM | En_Gibbs | 0.84 / 0.52 / 0.01 / 0.83 / -0.08 / 0.47 | 0 of 18 |
| KLQNSFLYESRQKNSVA | EASQREM | QQYHRLPLS | GP_Gibbs | 0.33 / 0.14 / 0.15 / -0.17 / 0.14 / 0.23 | 0 of 18 |
| KLGEQGGHSMDHANNIA | EVDMLDQ | QQYMHLPLI | En_Gibbs | 0.73 / 0.32 / 0.59 / 0.13 / 0.52 / 0.85 | 0 of 18 |
| SIYDATGMEARNKNPIA | DVSTRPS | QQYDRLPLS | En_HC | 0.41 / 0.54 / 0.23 / 0.02 / 0.22 / 0.39 | 1 of 18 (2.63) |
| KFSQMANTFSVSMNAVA | EMSTRES | QQYNRLPLA | En_Gen | 1.27 / 0.95 / 1.32 / 1.00 / 0.64 / 1.28 | 0 of 18 |
| MISQLYNMGQFAINSVA | QASERSE | QQYDRLPLM | En_Gen | 1.64 / 1.34 / 1.38 / 0.81 / 1.29 / 2.18 | 0 of 18 |
| MFSQLVYTGSRTKNAVA | QASTREN | QQYHRLPLS | En_HC | 0.99 / 0.96 / -0.07 / 0.59 / 0.55 / 0.20 | 0 of 18 |
| MISQLMNMGQFAINSVA | QADIRNS | QQYDRLPLA | En_Gen | 2.01 / 1.91 / 2.07 / 1.58 / 2.31 / 1.85 | 2 of 18 (2.47) |
| MISQVMNTLTRYGNNVA | DLQNRED | QQYFRLPLS | En_Gen | 1.10 / 0.66 / 0.81 / 2.00 / 1.30 / 1.30 | 0 of 18 |
| MISQLMNMGQFAINSVA | QASLRND | QQYDRLPLA | En_Gen | 0.57 / 0.08 / 0.09 / -0.74 / -0.30 / -0.11 | 0 of 18 |
| KLSQSHGGESRNKNSVA | HASLREV | QQYHRLPLS | GP_Gibbs | 0.65 / 0.50 / 0.48 / 0.43 / 0.59 / 0.45 | 0 of 18 |
| TIGQTLMAGIRNRSNVA | EVSQRLN | QQYDRLPLI | En_Gen | 1.50 / 1.66 / 1.49 / 1.99 / 1.86 / 1.92 | 3 of 18 (3.63) |
| KLVGDMQEDKNPSENIA | EMSSVEQ | QQYARLPLE | En_Gibbs | ND / ND / 2.61 / ND / 2.47 / ND | 1 of 18 (2.85) |
| NIVGRAVMQYSGRNAIA | NAHARCT | QQYFRLPLT | En_Gibbs | 0.68 / 1.15 / 1.24 / 1.93 / 1.73 / ND | 1 of 18 (1.09) |
| QIFFNDFQYRIESQNIA | QASMREV | QQYARLPLV | En_Gibbs | ND / ND / ND / ND / ND / ND | 0 of 18 |
| HLSAMWGVESVKSRNVA | ENNTREQ | QQYDRLPLS | En_Gen | 2.56 / ND / 3.13 / ND / 1.72 / 2.19 | 0 of 18 |
| VISMFELQGTGWAQNIA | QASHKVE | QQFSRLPLV | En_Gibbs | 1.06 / ND / 0.57 / 0.69 / 0.63 / 0.53 | 0 of 18 |
| KLDLTNGEEDKKGQNIA | EASTAGD | QSYWRLPLS | En_Gibbs | 1.11 / -0.01 / 0.65 / -0.13 / 1.89 / 0.47 | 0 of 18 |
| QLEWDQLWGANYDYSVA | AQDVISP | QQYHRLPLI | En_Gibbs | ND / 2.39 / ND / ND / ND / 2.35 | 1 of 18 (2.74) |
| RIQDHHAVGEMRHSSIA | EESYRMD | QQYSRLPLA | En_Gibbs | -0.10 / 0.07 / 0.33 / -0.09 / -0.12 / 0.43 | 0 of 18 |
| MISQLYNMGTFAINSVA | QASERNE | QQYDRLPLM | En_Gen | 1.12 / 1.72 / 1.73 / 1.30 / 1.17 / 1.61 | 0 of 18 |
| HVSEMIFAQMKARNSVA | ENNTREA | QQYDRLPLS | En_HC | ND / 2.73 / 1.79 / 4.05 / 2.61 / 2.70 | 1 of 18 (1.88) |
| KISMTSENQLKQRNSVA | ELVTRLN | QQYNRLPLS | En_Gen | 0.70 / 0.83 / 0.88 / 0.75 / 1.08 / 0.94 | 0 of 18 |
| MMSMGYLGGMRAKNNVA | QEETREK | QQYFRLPLI | En_HC | ND / 2.21 / ND / ND / 2.95 / 2.10 | 1 of 18 (2.03) |
| MFSQLFMYGSRNVNSVA | QASTRES | QQYHRLPLI | En_HC | 1.51 / 0.61 / 1.42 / 0.85 / 0.55 / 0.82 | 1 of 18 (1.70) |
| HITYGMMIAGRHSSSIA | QAETRAK | QQYDRLPLM | En_Gen | 0.84 / 0.48 / 0.71 / 0.88 / 0.84 / 0.70 | 0 of 18 |
| KLYVSTMLESHNKDSIA | DLSTRGN | QQYHRLPLS | En_HC | 0.87 / 0.55 / 0.57 / 1.38 / 0.60 / 0.98 | 1 of 18 (3.42) |
| KISMSIRYESQAKNSIA | EMTTREE | QSYHRLPLS | En_HC | 1.13 / 0.68 / 1.44 / 1.68 / 0.95 / 1.34 | 0 of 18 |
| KVSIGVWGGDRNKNSVA | DASTRES | QQYHRLPLS | GP_Gibbs | 0.40 / 0.33 / 0.29 / 0.19 / 0.26 / 0.44 | 1 of 18 (2.39) |

The first 2 variants above that were never detected:

| CDR-L1 | CDR-L2 | CDR-L3 | group | log10 Kd (nM) by replicate | empty controls |
|---|---|---|---|---|---|
| KMNMAFQQDLMDEYSVA | DHMTAVT | QQYGRLPLS | En_Gibbs | ND / ND / ND / ND / ND / ND | 0 of 18 |
| QIFFNDFQYRIESQNIA | QASMREV | QQYARLPLV | En_Gibbs | ND / ND / ND / ND / ND / ND | 0 of 18 |